# miR-21 reporter: miR-21 reporter, rising signal; HeLa miR-21 FLuc reporter, luciferase, 48 h; Potency, µM (top dose mostly 38.3 µM), without a hit: at the top dose reporter change, positive = more light; 340,000 tested, under 10 active; active = well fitted rising curve with a large enough effect; inconclusive = small, poorly fitted or top-dose-only effect; inactive = no such curve, though single readings can be large or run the other way;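 note: % of control where 0% means no effect; miR-21 action dims this reporter so a rising signal means less miR-21 action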
#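 HeLa cells stably expressing CMV-driven firefly luciferase with a downstream miR-21 binding sequence, endogenously expressing miR-21, were treated with titrations (up to about 40uM final) for 48 hours at 37 degree Celsius. Luciferase luminescence was read after lysis.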
# KDM4E inh: blocks human JMJD2E demethylase activity; B2RXH2; JMJD2E catalytic domain, FDH-coupled NADH fluorescence (FDH is formaldehyde dehydrogenase); Potency, µM (top dose mostly 57.1 µM), without a hit: at the highest dose activity change, negative = inhibition, hits mostly inhibitors; actives 1.6% (n = 230,000); active means well fitted inhibition curve with a large enough effect, not every such curve was filed as active; inconclusive means small, poorly fitted or top-dose-only effect, or another doubt; inactive means no such curve, though single readings can be large or run the other way;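 further: potency means the concentration at half of the fitted maximal effect; 0% = wells with enzyme and -100% = buffer wells without enzyme; nearly all actives have a fitted effect of over 50% in size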
# G9a block: inhibitors of human histone lysine methyltransferase G9a. AID 504332. Q96KQ7. actives 8.8% (n = 350,000). Potency, µM (series often up to 102 µM), for the others: at the highest dose activity, negative = inhibition, usual class: inhibitors. G9a H3K9 monomethylation, AlphaScreen, 2 h; further: potency means the concentration at half of the fitted maximal effect; on the % scale 0 is the no-effect control and ±100 the full control effect; nearly all actives have a fitted effect of over 75% in size
#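 Chemiluminescent proximity detection of H3K9 monomethylation, read after 10 min bead incubation in the dark. Reaction: 20 nM G9a, 500 nM biotin-H3K9 peptide, 20 uM SAM cofactor, 2 h, room temperature, following 15 min enzyme-compound preincubation.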
# ALDH1A1 block: inhibitors of human aldehyde dehydrogenase 1A1. Potency, µM (highest dose often 75.3 µM), for the others: top-dose activity, negative = inhibition, most hits filed as inhibitors. Purified ALDH1A1, NADH fluorescence, propionaldehyde substrate. actives 7.3% (n = 220,000). P00352; active means well fitted inhibition curve with a large enough effect, not every such curve was filed as active; inconclusive means small, poorly fitted or top-dose-only effect, or another doubt; inactive means no such curve, though single readings can be large or run the other way;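 further: potency means the concentration at half of the fitted maximal effect; plate controls were no enzyme wells and a reference inhibitor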
# Lamin A splicing: changes lamin A minigene splicing in HeLa cells. actives 0.01% (n = 200,000). HeLa LMNA splicing GFP/RFP minigene ratio, 48 h. Potency, µM (top dose mostly 46.1 µM), without a hit: at the highest dose ratio change, negative = inhibition, hits mostly inhibitors. AID 1487; active means well fitted inhibition curve with a large enough effect in the signal ratio, with a control signal flat, not every such curve was filed as active; inconclusive means small, poorly fitted or top-dose-only effect, or effect the other way, or a change in a side signal; the % refers to the signal ratio; further: potency means the concentration at half of the fitted maximal effect; on the % scale 0 is the no-effect control and ±100 the full control effect
#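 S3 HeLa stable clones carrying a lamin A-EGFP splicing minigene plus DsRed2 were seeded at 600 cells/well in Opti-MEM with 2% FBS, pin-dosed and incubated 48 h at 37°C. Acumen cytometry (488 nm) gave the GFP/RFP total-intensity ratio.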
# Sfp inh: qHTS Assay for Inhibitors of Bacillus subtilis Sfp phosphopantetheinyl transferase (PPTase); actives 3.5% (n = 310,000); AID 1490, 2009; Biochemical Sfp PPTase activity, qHTS; Potency, µM, for inactives: max response, negative = inhibition, usual class: inhibitors; 4'-phosphopantetheinyl transferase ffp (Bacillus subtilis), Q9F4F7; active means well fitted inhibition curve with a large enough effect; inconclusive means small, poorly fitted or top-dose-only effect, or another doubt; inactive means no such curve, though single readings can be large or run the other way;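 further: the enzyme is Sfp with the accession as filed and its product quenches rhodamine fluorescence; potency means the concentration at half of the fitted maximal effect; 0% = enzyme reaction without inhibitor and -100% = no enzyme wells; top concentration of the series not given in the record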
#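 Sfp 15 nM + cpd, 15 min RT; start w/ rhodamine-CoA 5 uM, BHQ-2-YbbR 12.5 uM (final); 50 mM Hepes pH 7.6, 10 mM MgCl2, 0.01% NP-40, 0.01% BSA; read 525/598 nm at 0 and 30 min.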
# Starred values were filed as active, the others as inactive; u = inconclusive; x = no result; [ ] = dose if it differs, or a comment. Most compounds without a hit are left out; they make up all but 13% or so of the library. Unless noted, the call rests on the fitted dose curve; in most records, active means well fitted curve in the direction sought with a large enough effect; inconclusive means small, poorly fitted or top-dose-only effect, or another doubt; inactive means no such curve, though single readings can be large; an effect the other way counts as inactive or inconclusive.
compound | miR-21 reporter | KDM4E inh | G9a block | ALDH1A1 block | Lamin A splicing | Sfp inh
CCCCC(O)(CCN1CCOCC1)c1ccc(Cl)cc1 (stereo not given) | -1% | 0% | -35% | 28µM* | 2% | -5%
CCCCOc1ccc(C(O)(CCC)CCN2CCOCC2)cc1 (stereo not given) | 7% | -5% | u | 5.6µM* | u | 14%
CCCC(O)(c1ccc(Cl)cc1)C(CN1CCOCC1)c1ccccc1 (stereo not given) | 16% | 6% | u | 1% | -1% | 4%
Cn1cccc1-c1cc2n(n1)CCC(=O)N2CCCC(=O)NCc1cccc(Cl)c1 | -3% | x | u | x | 9%[46 µM] | x
Cc1ccc2nc(Br)c3c(c2c1)OC(CBr)C3 (stereo not given) | 6% | x | 1% | x | x | 6%
CCOc1ccc(NC(=O)CSc2cc(C)c3ccccc3n2)cc1 | 1% | x | 4%[59 µM] | x | 5%[46 µM] | x
Cc1ccc(NC(=S)NNC(=S)Nc2cccc(C(F)(F)F)c2)cc1 | -20% | -19% | 20µM* | x | x | 28µM*
FC(F)(F)c1cccc(NC(=S)NNC(=S)Nc2ccc(Cl)cc2)c1 | u | u | 20µM* | x | x | 25µM*

# Full records, looked up by structure. Screens in order: miR-21 reporter, KDM4E inh, G9a block, ALDH1A1 block, Lamin A splicing, Sfp inh
# Cn1cccc1-c1cc2n(n1)CCC(=O)N2CCCC(=O)NCc1cccc(Cl)c1 as listed: -3%, x, u, x, 9%[46 µM], x
# CCOc1ccc(NC(=O)CSc2cc(C)c3ccccc3n2)cc1 as listed: 1%, x, 4%[59 µM], x, 5%[46 µM], x
# CCCC(O)(c1ccc(Cl)cc1)C(CN1CCOCC1)c1ccccc1 (stereo not given) as listed: 16%, 6%, u, 1%, -1%, 4%
# Cc1ccc2nc(Br)c3c(c2c1)OC(CBr)C3 (stereo not given) as listed: 6%, x, 1%, x, x, 6%

# New compounds follow.
compound | miR-21 reporter | KDM4E inh | G9a block | ALDH1A1 block | Lamin A splicing | Sfp inh
CN(C)NC(=S)Nc1cccc(C(F)(F)F)c1 | 4% | 14% | x | 0% | x | 3%
Cc1cc(C)c(C)c(N=Nc2nc3ccccc3n2C)c1C | -2% | u | 11µM* | -14% | u | 56µM*
COc1ccc(NC(=O)c2c(NCc3cccc(OC)c3)sc3c2CCCC3)cc1 | -10% | x | u | x | u | x
COc1ccc(NC(=O)c2c(NC(=O)Cc3ccccc3)sc3c2CCCC3)cc1 | -6% | x | 17%[59 µM] | x | x | x
COc1ccc(NC(=O)c2c(NCc3ccc(N(C)C)cc3)sc3c2CCC3)cc1 | 4% | x | 11µM* | x | -15%[46 µM] | x
COc1ccc(CC(=O)Nc2sc3c(c2C(=O)Nc2ccc(C)cc2)CCCCC3)cc1 | -26% | x | 10µM* | x | x | x
COc1ccc(CC(=O)Nc2sc3c(c2C(N)=O)CCCC3)cc1OC | 16% | x | u | x | x | -1%
COc1cccc(CC(=O)Nc2sc3c(c2C(N)=O)CCCC3)c1 | -13% | x | 40µM* | x | x | 3%
Cc1cccc2c1N(CCCOc1ccc(C(C)(C)C)cc1)C(=O)C2=O | -6% | -3% | 10µM* | 0.089µM* | u | u
Cc1ccccc1OCCCN1C(=O)C(=O)c2cccc(C)c21 | -1% | -7% | u | 0.11µM* | -10% | -25%
Cc1ccc2c(c1)C(=O)C(=O)N2CCCOc1ccccc1C | -3% | u | -38% | -3% | -2%[46 µM] | 0%
O=c1nc(N2CCCC2)nc(N2CCCC2)[nH]1 | 1% | x | -4% | x | x | 18%
Cc1cc2c(cc1S(=O)(=O)Nc1cccc(Cl)c1C)OCCN2C | -6% | x | -14%[59 µM] | x | 0%[46 µM] | x
CCc1ccccc1NC(=O)CCn1cccn1 | -3% | x | 7%[59 µM] | x | 6%[46 µM] | x
Oc1ccc(-c2nc3ccccn3c2Nc2ccc3c(c2)OCCO3)cc1 | -31% | x | 13µM* | x | x | x
Cc1ccc(Nc2c(-c3c[nH]c4ccccc34)nc3ccccn23)cc1 | 21% | x | 28µM* | x | x | x
Cc1ccc(Nc2c(-c3ccco3)nc3ccccn23)cc1 | -40% | 3% | 40µM* | -5% | -25% | u
COc1cc(-c2nc3ccc(C)cn3c2Nc2ccc3c(c2)OCCO3)ccc1O | -10% | u | 22µM* | u | u | -17%
Cc1ccc2nc(-c3c[nH]c4ccccc34)c(Nc3ccccc3C)n2c1 | -42% | x | -5%[59 µM] | x | x | x
Clc1cccc(-c2nc3ccccn3c2Nc2ccc3c(c2)OCCO3)c1 | -11% | x | u | x | x | x
c1ccc(Nc2c(-c3ccco3)nc3ccccn23)cc1 | -23% | u | u | u | -16% | -6%
CCN(CC)CCOC(=O)c1ccc(NC(=O)c2cc3cccc(OC)c3oc2=O)cc1 | -46% | x | u | x | 4%[46 µM] | x
Cc1ccc(S(=O)(=O)n2nc(-c3ccccc3)nc2NCc2ccccc2Cl)cc1 | -14% | x | 15%[59 µM] | x | x | x
Cc1cccc(CSc2nc3c(c(=O)[nH]2)C(c2cccc(O)c2)CC(=O)N3)c1 (stereo not given) | 6% | x | u | x | -1%[46 µM] | x

# Source: PubChem BioAssay (National Center for Advancing Translational Sciences (NCATS))
